Values of other authors in patent US8557989B2, “Electrochemical affinity biosensor system and methods” (priority 2003, dated 2013).

Details: U.S. Pat. No. 5,589,326

For “bis(2,2′-bipyridyl) imidazole chloro osmium (III) dichloride [osmium free mediator]”, the “redox potential vs. Ag/AgCl” value is given as “+150 mV”.
